Results reported in US11467161B2, “Biomarkers of therapeutic responsiveness” (Meso Scale Technologies, LLC., priority 2013, dated 2022).

Test system: SKMEL5 (active GSK3beta) xenograft
Assay: Biomarker levels in SKMEL5 GSK3β+ (active GSK3beta) melanoma xenograft tumor extracts (MSD multiplex immunoassay)
Format: in vivo, mice
Conditions: SKMEL5 GSK3β+ tumor extract, sorafenib (+), mean
Procedure: A panel of biomarkers was measured in Melanoma and RCC xenograft tissue extracts from mice, described in Table 4. Xenografts were generated using the listed melanoma and RCC cell lines, and tumors harvested and extracted following the indicated treatments. SKMEL5 cells were used with or without transfection to express constitutively active GSK3β. A375 cells were used with or without transfection to express GSK3β specific shRNA under a doxycycline-controlled promoter.
Multiplex immunoassay kits were used for detection of total and/or phosphorylated biomarkers (supplied by Meso Scale Discovery, a division of Meso Scale Diagnostics, LLC, Rockville, Md.). Levels of each biomarker were determined by calibration of the assays with were either purified calibrator proteins or using control cell lysates from appropriately treated cultured cell lines (e.g., cells subjected to conditions known to induce or reduce levels of a specific biomarker). Calibration curves were derived by testing serial dilutions of the calibrator lysates or purified proteins. Levels of biomarkers in test samples were back-calculated from the calibration curves and were expressed in terms of wt. (or arbitrary Units for phospho-protein markers) of protein per weight of tissue extract (for purified calibrators) or in terms of weight of crude control lysate protein per well (for lysate calibrators). […]

`CNC(=O)c1cc(Oc2ccc(NC(=O)Nc3ccc(Cl)c(C(F)(F)F)c3)cc2)ccn1` [sorafenib] gave a Wnt3A of 11.4 pg/ug pr.
